Measurements reported in PubChem BioAssay AID2112 (National Center for Advancing Translational Sciences (NCATS), 2009).
This is a selection; strong and weak results do not stand in their true shares. The source made the active and inactive calls. Calls come from the whole dose curve; as a rule, active = well fitted inhibition curve with a large enough effect; inconclusive = small, poorly fitted or top-dose-only effect, or effect the other way, or another doubt; inactive = no such curve, though single readings can be large or run the other way.

What follows are compounds tested against Lysosomal alpha-glucosidase (Homo sapiens) (UniProt P10253) (assay: qHTS Assay for Inhibitors and Activators of Human alpha-Glucosidase From Spleen Homogenate). Conditions: 4-MU-alpha-glucoside fluorescence; at 79.9 µM (top of the series) unless noted.
From the text: NIH Chemical Genomics Center [NCGC] NIH Molecular Libraries Probe Production Centers Network [MLPCN] MLPCN Grant: R03 MH084841-01 Assay Submitter (PI): Wei Zheng NCGC Assay Overview: Alpha-glucosidase is responsible for the hydrolysis of terminal, non-reducing 1,4-linked alpha-D-glucose residues, which releases alpha-D-glucose. It is a lysosomal hydrolase that is required for the degradation of a small percentage (1-3%) of cellular glycogen in humans. Deficiency of this enzyme results in glycogen-storage disease type II (GSDII), also referred to as Pompe disease, an autosomal recessive disorder. Structurally normal glycogen is accumulated in the lysosomes and cytoplasm in affected patients, primarily in muscle tissues. Excessive glycogen storage within lysosomes may interrupt normal functioning of other organelles and leads to cellular injury. In turn, this leads to enlargement and dysfunction of the entire organ involved (eg: cardiomyopathy and muscle weakness). It has been reported that the improper folding and trafficking of alpha-glucosidase resulting from genetic mutations may account for a significant number of Pompe patients. […] We optimized this alpha-glucosidase assay in 1536-well plate format for identification of novel small molecule inhibitors or activators with structures other than the sugar analogs in order to develop new pharmacological chaperones. In particular, this assay is directed towards discovering compounds active in a more natural setting, tissue homogenate, that may have been missed by screens of the purified enzyme under more stringent conditions.
NCGC Assay Protocol Summary: This is a fluorogenic enzyme assay with 4-methylumbelliferyl-alpha-D-glucopyranoside as the substrate and human spleen homogenate containing alpha-glucosidase as the enzyme preparation. Upon hydrolysis of this fluorogenic substrate, the resulting product, 4-methylumbelliferone (which excites at 365 nm and emits at 440 nm) can be detected by a fluorescence plate reader. Data were normalized to the controls for basal activity (without enzyme) and 100% activity (with enzyme). The AC50 values were determined from concentration-response data modeled with the standard Hill equation. Assay buffer: 50 mM citric acid (titrated with potassium phosphate to pH 5.0), 0.01% Tween-20 (pH 5.0 is an optimal condition for this enzyme assay) 1536-well assay protocol for the alpha-glucosidase from human spleen homogenate: (1) Add 2 ul/well spleen homogenate (1 ug) (2) Add 23 nL compounds in DMSO solution. The final titration was 0.5 nM to 58 uM. (3) Add 2 ul of substrate (1 mM final) (4) Incubate at 37 C for 40 min (5) Add 2 ul stop solution (1M NaOH and 1M Glycine mixture, pH 10) (6) Detect the assay plate in a ViewLux plate reader (PerkinElmer) with Ex=365 nm and Em=440nm. Keywords: Alpha-glucosidase, Pompe Disease, pharmacological chaperone, chaperone therapy, high throughput screening, alpha-glucosidase inhibitor, MLSMR, MLSCN, NIH Roadmap, qHTS and NCGC
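Note: 0% = enzyme with vehicle and -100% = no enzyme basal signal.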

SMILES	activity change, negative = inhibition
Cc1cc(-c2cccc3ccccc23)c(C)cn1.O=[N+]([O-])c1cc([N+](=O)[O-])c(O)c([N+](=O)[O-])c1	inactive: 4.9%
O=[N+]([O-])c1ccc(OP2(=O)COCCO2)cc1 (stereo not drawn)	inactive: 0.019%
COc1ccc(NP(C)(=O)Oc2ccccc2OC)cc1 (stereo not drawn)	inactive: 2.59%
CN(C)CCOC(=O)C(O)(c1ccccc1)C1CCCCC1 (stereo not drawn)	inactive: -6.64%
COc1ccc(OP(C)(=O)Nc2cccc(Br)c2)cc1 (stereo not drawn)	inactive: -2.56%
CP(=O)(Nc1ccc(SC(F)(F)F)cc1)Oc1ccccc1 (stereo not drawn)	inactive: 7.27%
CCCOc1ccc(NP(C)(=O)Oc2ccc(Cl)cc2)cc1 (stereo not drawn)	inactive: 4.14%
COc1ccccc1OP(C)(=O)Nc1c(C)cccc1C (stereo not drawn)	inactive: -9.46%
CN1CCCCC1COC(=O)C1(O)c2ccccc2CCc2ccccc21 (stereo not drawn)	inactive: -1.86%
O=[N+]([O-])c1cc([N+](=O)[O-])c(Nc2nnnn2CCO)c([N+](=O)[O-])c1	inactive: -2.4%
Cc1nc2ccc3ccccc3c2s1.O=[N+]([O-])c1cc([N+](=O)[O-])c(O)c([N+](=O)[O-])c1	inactive: -13.5%
CC(C)N(CCCl)C(C)C	inactive: -2.45%
O=[N+]([O-])c1cc([N+](=O)[O-])c(-n2nnc3ccccc32)c([N+](=O)[O-])c1	inactive: 8.21%
CP(=O)(Nc1cccc(Br)c1)Oc1ccccc1 (stereo not drawn)	inactive: 18.1%
Cc1cc(C)cc(OP(C)(=O)Nc2ccccn2)c1 (stereo not drawn)	inactive: -1.23%
Cc1ccc(C)c(NP(C)(=O)Oc2ccccc2)c1 (stereo not drawn)	inactive: -0.575%
Cc1cc(C)cc(OP(C)(=O)Nc2ccc(C)cc2C)c1 (stereo not drawn)	inactive: -6.5%
CCOC(=O)c1ccc(NP(C)(=O)Oc2cc(C)cc(C)c2)cc1 (stereo not drawn)	inactive: -6.5%
COc1ccccc1OP(C)(=O)Nc1cccc(Br)c1 (stereo not drawn)	inactive: -2.88%
O=[N+]([O-])OCC(CO[N+](=O)[O-])(CO[N+](=O)[O-])CO[N+](=O)[O-]	inactive: -5.12%
Cc1ccc([N+](=O)[O-])cc1[N+](=O)[O-]	inactive: 4.39%
CC1=NCCc2c1[nH]c1ccccc21.O=[N+]([O-])c1cc([N+](=O)[O-])c(O)c([N+](=O)[O-])c1	inactive: -7.55%
O=[N+]([O-])c1cccc([N+](=O)[O-])c1	inactive: 8.61%
COc1ccccc1OP(C)(=O)Nc1cc(Cl)ccc1C (stereo not drawn)	inactive: 3.61%

SMILES	activity change, negative = inhibition
COc1ccc(OP(C)(=O)Nc2cccc(F)c2)cc1 (stereo not drawn)	inactive: -6.42%
Cc1cc(C)cc(OP(C)(N)=O)c1 (stereo not drawn)	inactive: 11.3%
CCOC(=O)c1ccc(NP(C)(=O)Oc2ccccc2)cc1 (stereo not drawn)	inactive: -2.91%
COc1ccccc1OP(C)(=O)Nc1ccc(C)cc1 (stereo not drawn)	inactive: -5%
Cc1ccc(NP(C)(=O)Oc2ccccc2)c(C)c1 (stereo not drawn)	inactive: 0.407%
CC(C)(C)c1ccc(OP(C)(=O)Nc2ccc(SC(F)(F)F)cc2)cc1 (stereo not drawn)	inactive: -5.18%
O=C(O)C(O)(c1ccccc1)c1ccccc1	inactive: -0.393%
Cc1cccc(C)c1OP(C)(N)=O (stereo not drawn)	inactive: -4.2%
O=[N+]([O-])c1ccc2c(c1)C=Nc1ccccc1O2	inactive: -2.89%
O=C(O)C1(O)c2ccccc2-c2ccccc21	inactive: 1.62%
O=[N+]([O-])[O-].[NH4+]	inactive: -1.89%
CCN(CC)CCCOC(=O)C(O)(c1ccccc1)c1ccccc1	inactive: 8.13%
CP(=O)(Nc1ccccn1)Oc1ccc(Cl)cc1 (stereo not drawn)	inactive: -7.37%
CCOP(C)(=S)SCC(=O)NC(C)C(=O)O (stereo not drawn)	inactive: 7.53%
CCOC(=O)c1ccc(NP(C)(=O)Oc2ccc(OC)cc2)cc1 (stereo not drawn)	inactive: -10.5%
CCc1ccc(OP(C)(=O)N2CCN(c3ccc([N+](=O)[O-])cc3)CC2)cc1 (stereo not drawn)	inactive: 7.82%
CP(=O)(NC(=O)Nc1ccccc1)Oc1ccccc1 (stereo not drawn)	inactive: -5.9%
Cc1cc(C)cc(OP(C)(=O)Nc2ccc(SC(F)(F)F)cc2)c1 (stereo not drawn)	inactive: -0.0424%
Cc1cccc(C)c1OP(C)(=O)Nc1ccc(SC(F)(F)F)cc1 (stereo not drawn)	inactive: -17.2%
CP(=O)(Nc1ccc(SC(F)(F)F)cc1)Oc1ccc(Cl)cc1 (stereo not drawn)	inactive: 3.27%
CP(=O)(Oc1ccccc1)OC(c1ccccc1)C(F)(F)F (stereo not drawn)	inactive: -0.274%
COc1ccccc1OP(C)(=O)Nc1ccccc1 (stereo not drawn)	inactive: -1.65%
CP(=O)(Nc1ccccc1Br)Oc1ccccc1 (stereo not drawn)	inactive: 1.98%
CP(=S)(Nn1cnnc1)Oc1ccccc1 (stereo not drawn)	inactive: -7.71%
